Experimental data published in ChEMBL document CHEMBL1150295, “Synthesis and receptor binding properties of 2beta-alkynyl and 2beta-(1,2,3-triazol)substituted 3beta-(substituted phenyl)tropane derivatives” (Bioorg Med Chem, 2008).

Chains of the proteins cited; added tags and fusions are not shown.
UniProt P31645, whole entry: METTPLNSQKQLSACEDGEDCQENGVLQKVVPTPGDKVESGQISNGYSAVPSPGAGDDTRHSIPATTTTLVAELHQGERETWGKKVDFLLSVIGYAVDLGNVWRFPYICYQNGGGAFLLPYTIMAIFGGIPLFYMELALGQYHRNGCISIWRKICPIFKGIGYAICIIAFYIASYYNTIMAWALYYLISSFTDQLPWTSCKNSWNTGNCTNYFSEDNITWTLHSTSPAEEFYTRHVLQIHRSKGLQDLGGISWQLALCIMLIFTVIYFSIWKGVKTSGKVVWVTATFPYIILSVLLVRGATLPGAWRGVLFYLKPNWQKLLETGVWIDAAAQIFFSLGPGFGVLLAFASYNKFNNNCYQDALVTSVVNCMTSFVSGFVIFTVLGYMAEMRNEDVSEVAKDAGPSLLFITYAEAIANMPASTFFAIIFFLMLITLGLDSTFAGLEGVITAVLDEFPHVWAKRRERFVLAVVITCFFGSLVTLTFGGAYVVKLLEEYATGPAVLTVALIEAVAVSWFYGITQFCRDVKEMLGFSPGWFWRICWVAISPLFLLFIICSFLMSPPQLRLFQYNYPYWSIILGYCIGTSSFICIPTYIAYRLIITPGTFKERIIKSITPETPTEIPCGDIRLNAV

Target: Sodium-dependent serotonin transporter (Homo sapiens, UniProt P31645)
Assay: Displacement of [3H]paroxetine from serotonin transporter

## COC(=O)[C@H]1[C@@H](c2ccccc2)C[C@@H]2CC[C@H]1N2C
  Ki: 182 nM
